Laboratory results from patent US10118930B2, “Piperidinylpyrazolopyrimidinones and their use” (BAYER PHARMA AKTIENGESELLSCHAFT, priority 2015, dated 2018).
pIC50: −log10 of the molar value. Where a name gives a salt, the structure may show the parent alone.

Test system: clot lysis (fibrinolysis) in diluted human citrated plasma, tPA-induced
Assay: Plasma-based clot lysis assay (5%)
Type: biochemical
Conditions: human citrated platelet-poor plasma 5%, fibrinogen 3 μM, CaCl2 10 mM, tPA 0.2 nM, 37° C., OD at 405 nm
Procedure: B-2. Plasma-based Clot Lysis Assay (5%)
The clot-lysis test system configures the kinetics of clot formation and degradation in vitro and allows quantifying modulation of the process by selected test compounds.
The test compounds were dissolved in 1% acetic acid and further complemented with an equal volume of DMSO. The resulting stock solutions were serially diluted in 0.5% acetic acid/50% DMSO. 1 μL aliquots of these solutions were placed into 384 well microplates (Greiner, black, transparent bottom), followed by 30 μL of diluted human citrated plasma (platelet-poor, final concentration: 5%; supplemented with fibrinogen, final concentration: 3 μM; dilution buffer: 20 mM HEPES, 150 mM NaCl, 0.01% Brij (pH 7)). The reactions were started by addition of 20 μL of CaCl2 (final concentration: 10 mM), and tPA (tissue plasminogen activator, final concentration: 0.2 nM) in dilution buffer, followed by an additional volume of 20 μL dilution buffer for improved mixing. The reactions were incubated at 37° C. […] IC50 values were determined by comparing the resulting time courses with the time course of a blank control reaction.

| Structure (SMILES) | pIC50 |
| --- | --- |
| C[C@H]1C[C@H]1c1nc(-c2cnn3c(C4CCNCC4)cc(=O)[nH]c23)no1 (relative stereo) [Example 382, Rel-3-{5-[(1R,2S)-2-methylcyclopropyl]-1,2,4-oxadiazol-3-yl}-7-(piperidin-4-yl)pyrazolo[1,5-a]pyrimidin-5(4H)-one hydrochloride] | 7.55 |
| O=c1cc(C2CCNCC2)n2ncc(-c3ccccc3)c2[nH]1 [Example 1, 3-Phenyl-7-(piperidin-4-yl)pyrazolo[1,5-a]pyrimidin-5(4H)-one hydrochloride] | 7.42 |
| O=c1cc(C2CCNCC2)n2ncc(-c3ccccn3)c2[nH]1 [Example 2, 7-(Piperidin-4-yl)-3-(pyridin-2-yl)pyrazolo[1,5-a]pyrimidin-5(4H)-one dihydrochloride] | 7.41 |
| COc1ccccc1-c1c(C)nn2c(C3CCNCC3)cc(=O)[nH]c12 [Example 6, 3-(2-Methoxyphenyl)-2-methyl-7-(piperidin-4-yl)pyrazolo[1,5-a]pyrimidin-5(4H)-one hydrochloride] | 6.77 |
| COCc1nn2c(C3CCNCC3)cc(=O)[nH]c2c1-c1ccccc1 [Example 11, 2-(Methoxymethyl)-3-phenyl-7-(piperidin-4-yl)pyrazolo[1,5-a]pyrimidin-5(4H)-one hydrochloride] | 7.24 |
| O=c1cc(C2CCNCC2)n2ncc(-c3cccc(OCc4ccccc4)c3)c2[nH]1 [Example 12, 3-[3-(Benzyloxy)phenyl]-7-(piperidin-4-yl)pyrazolo[1,5-a]pyrimidin-5(4H)-one hydrochloride] | 7.52 |
| O=c1cc(C2CCNCC2)n2nc(-c3ccccc3)c(-c3ccc(F)cc3)c2[nH]1 [Example 64, 3-(4-Fluorophenyl)-2-phenyl-7-(piperidin-4-yl)pyrazolo[1,5-a]pyrimidin-5(4H)-one hydrochloride] | 7.41 |
| COc1ccccc1-c1cnn2c(C3CCNCC3)cc(=O)[nH]c12 [Example 67, 3-(2-Methoxyphenyl)-7-(piperidin-4-yl)pyrazolo[1,5-a]pyrimidin-5(4H)-one hydrochloride] | 7.01 |
| CN(CCC(N)=O)C(=O)c1cnn2c(C3CCNCC3)cc(=O)[nH]c12 [Example 99, N-(3-amino-3-oxopropyl)-N-methyl-5-oxo-7-(piperidin-4-yl)-4,5-dihydropyrazolo[1,5-a]pyrimidine-3-carboxamide hydrochloride] | 7.31 |
| O=C(c1cnn2c(C3CCNCC3)cc(=O)[nH]c12)N1CCC(F)(F)C1 [Example 101, 3-[(3,3-difluoropyrrolidin-1-yl)carbonyl]-7-(piperidin-4-yl)pyrazolo[1,5-a]pyrimidin-5(4H)-one hydrochloride] | 7.47 |
| O=c1cc(C2CCNCC2)n2ncc(-c3nc(-c4cccc(C(F)(F)F)c4)no3)c2[nH]1 [Example 111, 7-(Piperidin-4-yl)-3-{3-[3-(trifluoromethyl)phenyl]-1,2,4-oxadiazol-5-yl}pyrazolo[1,5-a]pyrimidin-5(4H)-one hydrochloride] | 7.49 |
| O=c1cc(C2CCNCC2)n2ncc(-c3nc(-c4ccccc4Cl)no3)c2[nH]1 [Example 121, 3-[3-(2-Chlorophenyl)-1,2,4-oxadiazol-5-yl]-7-(piperidin-4-yl)pyrazolo[1,5-a]pyrimidin-5(4H)-one hydrochloride] | 7.40 |
| O=c1cc(C2CCNCC2)n2ncc(-c3nc(-c4ccc(F)cc4)no3)c2[nH]1 [Example 126, 3-[3-(4-Fluorophenyl)-1,2,4-oxadiazol-5-yl]-7-(piperidin-4-yl)pyrazolo[1,5-a]pyrimidin-5 (4H)-one hydrochloride] | 7.33 |
| Cc1ccc(-c2noc(-c3cnn4c(C5CCNCC5)cc(=O)[nH]c34)n2)cc1C [Example 129, 3-[3-(3,4-Dimethylphenyl)-1,2,4-oxadiazol-5-yl]-7-(piperidin-4-yl)pyrazolo[1,5-a]pyrimidin-5(4H)-one hydrochloride] | 7.42 |
| Cc1ccc(-c2noc(-c3cnn4c(C5CCNCC5)cc(=O)[nH]c34)n2)c(F)c1 [Example 131, 3-[3-(2-Fluoro-4-methylphenyl)-1,2,4-oxadiazol-5-yl]-7-(piperidin-4-yl)pyrazolo[1,5-a]pyrimidin-5(4H)-one hydrochloride] | 7.20 |
| O=c1cc(C2CCNCC2)n2ncc(-c3nc(-c4cc(F)cc(Cl)c4)no3)c2[nH]1 [Example 138, 3-[3-(3-Chloro-5-fluorophenyl)-1,2,4-oxadiazol-5-yl]-7-(piperidin-4-yl)pyrazolo[1,5-a]pyrimidin-5(4H)-one hydrochloride] | 7.41 |
| O=c1cc(C2CCNCC2)n2ncc(-c3nc(-c4cccc(Cl)c4)no3)c2[nH]1 [Example 153, 3-[3-(3-chlorophenyl)-1,2,4-oxadiazol-5-yl]-7-(piperidin-4-yl)pyrazolo[1,5-a]pyrimidin-5(4H)-one hydrochloride] | 7.51 |
| O=c1cc(C2CCNCC2)n2ncc(-c3ccc(-c4ccc(C(F)(F)F)cc4)cc3)c2[nH]1 [Example 161, 7-(piperidin-4-yl)-3-[4′-(trifluoromethyl)biphenyl-4-yl]pyrazolo[1,5-a]pyrimidin-5(4H)-one hydrochloride] | 6.48 |

Now from value to compound:

| pIC50 | Structure (SMILES) |
| --- | --- |
| 8.00 | C[C@H]1CCC[C@H]1c1nc(-c2cnn3c(C4CCNCC4)cc(=O)[nH]c23)no1 (relative stereo) [Example 387, Rel-3-{5-[(1R,2S)-2-methylcyclopentyl]-1,2,4-oxadiazol-3-yl}-7-(piperidin-4-yl)pyrazolo[1,5-a]pyrimidin-5(4H)-one hydrochloride] |
| 7.74 | CC1CCCN1C(=O)c1cnn2c(C3CCNCC3)cc(=O)[nH]c12 (stereo in doubt) [Example 325, 3-{[(2R)-2-methylpyrrolidin-1-yl]carbonyl}-7-(piperidin-4-yl)pyrazolo[1,5-a]pyrimidin-5(4H)-one hydrochloride] |
| 7.82 | CCNC(=O)c1cnn2c(C3CCNCC3)cc(=O)[nH]c12 [Example 19, N-Ethyl-5-oxo-7-(piperidin-4-yl)-4,5-dihydropyrazolo[1,5-a]pyrimidine-3-carboxamide hydrochloride] |
| 7.89 | CC(C)c1noc(-c2cnn3c(C4CCNCC4)cc(=O)[nH]c23)n1 [Example 33, 3-(3-Isopropyl-1,2,4-oxadiazol-5-yl)-7-(piperidin-4-yl)pyrazolo[1,5-a]pyrimidin-5 (4H)-one hydrochloride] |
| 7.74 | O=C(NCc1ccccc1)c1c(-c2ccccc2)nn2c(C3CCNCC3)cc(=O)[nH]c12 [Example 42, N-Benzyl-5-oxo-2-phenyl-7-(piperidin-4-yl)-4,5-dihydropyrazolo[1,5-a]pyrimidine-3-carboxamide trifluoroacetate] |
| 7.64 | Cc1ccc(-c2cnn3c(C4CCNCC4)cc(=O)[nH]c23)cc1 [Example 45, 3-(4-Methylphenyl)-7-(piperidin-4-yl)pyrazolo[1,5-a]pyrimidin-5(4H)-one hydrochloride] |
| 7.62 | O=c1cc(C2CCNCC2)n2ncc(-c3cccc(F)c3)c2[nH]1 [Example 52, 3-(3-Fluorophenyl)-7-(piperidin-4-yl)pyrazolo[1,5-a]pyrimidin-5(4H)-one hydrochloride] |
| 7.77 | Cc1csc(-c2cnn3c(C4CCNCC4)cc(=O)[nH]c23)c1 [Example 66, 3-(4-Methyl-2-thienyl)-7-(piperidin-4-yl)pyrazolo[1,5-a]pyrimidin-5(4H)-one hydrochloride] |
| 7.92 | O=c1cc(C2CCNCC2)n2ncc(S(=O)(=O)c3ccccc3)c2[nH]1 [Example 73, 3-(Phenylsulfonyl)-7-(piperidin-4-yl)pyrazolo[1,5-a]pyrimidin-5(4H)-one hydrochloride] |
| 7.72 | CC1(NC(=O)c2cnn3c(C4CCNCC4)cc(=O)[nH]c23)CCC1 [Example 91, N-(1-methylcyclobutyl)-5-oxo-7-(piperidin-4-yl)-4,5-dihydropyrazolo[1,5-a]pyrimidine-3-carboxamide hydrochloride] |
| 7.85 | O=c1cc(C2CCNCC2)n2ncc(-c3nc(-c4ccccc4OC(F)(F)F)no3)c2[nH]1 [Example 155, 7-(piperidin-4-yl)-3-{3-[2-(trifluoromethoxy)phenyl]-1,2,4-oxadiazol-5-yl}pyrazolo[1,5-a]pyrimidin-5(4H)-one hydrochloride] |
| 7.80 | COc1ccc(-c2noc(-c3cnn4c(C5CCNCC5)cc(=O)[nH]c34)n2)cc1 [Example 156, 3-[3-(4-methoxyphenyl)-1,2,4-oxadiazol-5-yl]-7-(piperidin-4-yl)pyrazolo[1,5-a]pyrimidin-5(4H)-one hydrochloride] |

Same assay, conditions: human citrated platelet-poor plasma 5%, fibrinogen 3 μM, CaCl2 10 mM, tPA 0.2 nM, 37° C., OD at 405 nm; hydrochloride

| pIC50 | Structure (SMILES) |
| --- | --- |
| 7.51 | Cc1nn2c(C3CCNCC3)cc(=O)[nH]c2c1-c1cccc(C(F)(F)F)c1 [Example 7, 2-Methyl-7-(piperidin-4-yl)-3-[3-(trifluoromethyl)phenyl]pyrazolo[1,5-a]pyrimidin-5 (4H)-one hydrochloride] |
| 7.68 | Cc1nn2c(C3CCNCC3)cc(=O)[nH]c2c1-c1cccc(C(F)(F)F)c1 [Example 13, 2-Methyl-7-(piperidin-4-yl)-3-[3-(trifluoromethyl)phenyl]pyrazolo[1,5-a]pyrimidin-5(4H)-one hydrochloride] |

Same assay, conditions: human citrated platelet-poor plasma 5%, fibrinogen 3 μM, CaCl2 10 mM, tPA 0.2 nM, 37° C., OD at 405 nm; trifluoroacetate

| Structure (SMILES) | pIC50 |
| --- | --- |
| CCOC(=O)c1c(C)nn2c(C3CCNCC3)cc(=O)[nH]c12 [Example 9, Ethyl 2-methyl-5-oxo-7-(piperidin-4-yl)-4,5-dihydropyrazolo[1,5-a]pyrimidine-3-carboxylate trifluoroacetate] | 7.48 |
